# System: Bacillus subtilus globigii spores
# Test: Spore destruction by oxidant solutions (Example 11)
# Settings: 1.3×10^8 spores on glass slide in 8 mL; 0.13 M hypochlorite or 1.3 M activated peroxide + 0.13 M OXONE; detection limit 99.99998% (6.6 log) reduction
substance,measurement,value
Sodium Hypochlorite,time to eliminate all detectable spores,≤ 5 min

# Source: US6569353B1, “Reactive decontamination formulation” (dated 2003)
